Antibody variant affinities, Ab-14 light chain, assay 1

Target peptide (SARS-CoV-2 spike, HR2 region): PDVDLGDISGINAS

The variants keep the heavy chain, the linker and the frameworks of Ab-14 (scFv order VH, a (GGGGS)3 linker, VL).
VH: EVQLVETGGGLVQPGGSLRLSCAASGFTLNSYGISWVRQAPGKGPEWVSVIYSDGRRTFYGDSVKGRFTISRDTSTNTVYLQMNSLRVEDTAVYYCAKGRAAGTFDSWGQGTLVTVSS
VL: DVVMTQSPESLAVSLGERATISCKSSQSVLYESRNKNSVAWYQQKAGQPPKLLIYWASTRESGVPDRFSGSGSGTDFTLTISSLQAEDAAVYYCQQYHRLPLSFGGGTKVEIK

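The parent was found by panning a naive human phage display library on the peptide. The library (AAYL50) carries one to three amino acid substitutions per variant, with no insertions or deletions. The scFvs were displayed on barcoded MATa yeast, the peptide on MATalpha yeast. After mating in shaken culture at 30 °C for 16 h, diploids were selected and their barcode pairs sequenced. Scores were corrected for input abundance and mapped to Kd with protein pairs of known affinity run in the same pool. There are three technical replicates.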

Positions count from residue 1 of the parent VL; S25A puts A in place of S. All variants listed here change S25 of the VL, counted from its first residue. Affinities are written as log10 Kd with Kd in nM; a lower number is a better binder. A pair that was not seen in that replicate is written "ND"; this usually means weak binding, but a binder can also be missed. Empty control strains, which show no peptide, gave a signal in 18% of pairings with library AAYL50; the median was 4.19 and 95% of these signals were weaker than 2.99. No background was subtracted. For reference, the parent read 0.65 as the reference entry and 1.68 as a member of this library.

changes	log10 Kd, replicates
S25A L30Q Y97E	2.14 2.06 1.70
S25H R34I K36S	1.33 1.59 1.57
S25Q Y31M L100H	3.28 4.21 3.39
S25M S28H S62R	0.22 0.45 0.29
S25C S28T L30G	1.43 1.36 1.27
S25Y A40N R60A	ND ND ND
S25C Y31N A57L	2.05 1.81 1.97
S25P Y97D	ND ND ND
S25Q E32Q N35E	2.04 2.11 2.01
S25G R34W L100Y	2.66 2.41 2.43
S25L Y31W	0.42 0.22 0.33
S25A Q27Y E32Y	3.09 3.41 3.99
S25T Q95V H98F	ND ND ND
S25Q Y31Q A57I	2.50 3.69 ND
S25Q E61A R99K	ND ND ND
S25G A40D A57H	4.34 3.42 3.92
S25T R34L S62V	0.09 0.48 0.23
S25H V39F S58I	4.12 ND ND
S25D S103K	ND ND ND
S25T T59N R99L	2.04 1.72 2.13
S25R W56M R99P	0.98 0.90 1.08
S25Y E32A R99V	0.49 0.69 0.62
S25D S38Y S103F	ND 3.10 5.42
S25C Y31M S62G	0.58 0.75 0.62
S25E V29K R60M	ND ND ND
S25A Y97C P101Q	ND ND ND
S25E V39T P101V	ND ND ND
S25R A40K	ND ND ND
S25D V39K	ND ND 4.21
S25I R34E Y97L	4.40 ND ND
S25M Q95R H98T	ND ND ND
S25F T59L E61L	0.37 0.76 0.51
S25I T59K L102T	3.43 2.59 2.92
K24S S25E Q27T	0.99 1.10 1.18
S25M Q95E L100E	ND ND ND
S25N L30P S58G	2.42 ND 4.67
S25F R34P L102D	0.77 0.69 0.61
S25F N37Q A57P	ND 3.05 ND
S25V S38C A40K	5.63 4.86 3.79
S25Q S62H Q96S	1.01 1.23 1.34
S25E Q95G R99G	1.32 1.48 1.55
S25M R34S L100V	1.47 1.58 1.68
S25N E32H H98R	2.92 4.60 ND

Reference: Engelhart et al. 2022, doi:10.1038/s41597-022-01779-4. File: FLAb, binding data.